{"sequences": {"note": "Amino acid sequences for entries named in this document (tags omitted). A change or cut given only in a name is not applied to a line headed by its entry.", "UniProt Q9AIU0": "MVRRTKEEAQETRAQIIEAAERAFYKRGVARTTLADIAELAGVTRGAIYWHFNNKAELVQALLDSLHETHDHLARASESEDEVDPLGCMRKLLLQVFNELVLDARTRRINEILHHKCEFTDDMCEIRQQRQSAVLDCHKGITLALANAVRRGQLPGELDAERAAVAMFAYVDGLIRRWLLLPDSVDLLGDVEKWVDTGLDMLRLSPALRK"}, "source": "paper PMC4551912", "about": "“Synthetic biosensors for precise gene control and real-time monitoring of metabolites” (Nucleic Acids Research, 2015)", "molecular_target": "TtgR (Pseudomonas putida, UniProt Q9AIU0)", "format": "cell-based", "details": "high-copy plasmid, LB, 37°C; extracellular inducer; induction (derepression); lumped parameter of uptake, DNA binding and Kd, not a pure affinity; read-out: Half maximal parameter", "data": [{"smiles": "O=C1C[C@@H](c2ccc(O)cc2)Oc2cc(O)cc(O)c21", "note": "[naringenin]", "values": [{"measurement": "EC50", "result": "550 ± 50", "unit": "µM"}]}]}
